The assay addresses T1, hOCT3 (Homo sapiens, UniProt O75751).
T1 sequence (O75751 1-556): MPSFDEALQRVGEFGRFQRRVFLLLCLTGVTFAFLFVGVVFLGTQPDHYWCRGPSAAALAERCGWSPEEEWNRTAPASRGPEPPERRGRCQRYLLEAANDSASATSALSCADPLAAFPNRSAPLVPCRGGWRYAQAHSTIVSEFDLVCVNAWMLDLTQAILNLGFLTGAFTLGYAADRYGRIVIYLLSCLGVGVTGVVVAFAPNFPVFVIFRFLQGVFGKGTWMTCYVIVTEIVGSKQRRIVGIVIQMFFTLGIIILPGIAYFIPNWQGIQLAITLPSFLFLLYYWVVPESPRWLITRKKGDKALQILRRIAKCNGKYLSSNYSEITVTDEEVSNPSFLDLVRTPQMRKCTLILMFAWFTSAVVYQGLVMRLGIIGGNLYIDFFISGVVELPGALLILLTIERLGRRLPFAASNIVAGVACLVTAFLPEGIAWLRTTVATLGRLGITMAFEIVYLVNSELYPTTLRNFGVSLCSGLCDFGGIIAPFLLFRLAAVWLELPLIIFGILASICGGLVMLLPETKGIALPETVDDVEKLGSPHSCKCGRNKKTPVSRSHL
In words: Inhibition of ASP+ uptake in hOCT3-HEK293 cells (apparent affinity). Details: expressed in transfected cells; host or cells: HEK293. The format is cell-based. The note with it: hOCT3-HEK293, ASP+ 1 µM. On the procedure:
Apparent affinities of hOCT1, hOCT2, hOCT3, and hOCTN1 for saracatinib were determined in transfected HEK293 cells by inhibiting the uptake of the known OCT substrate ASP^+ (1 μM) with saracatinib (10^−10 to 10^−3 M) as described elsewhere.

The structures appear in SMILES notation.

Usually IC50 stands for the point on the concentration scale where inhibition reaches its midpoint. Consider `CN1CCN(CCOc2cc(OC3CCOCC3)c3c(Nc4c(Cl)ccc5c4OCO5)ncnc3c2)CC1` [saracatinib, N-(5-chloro-1,3-benzodioxol-4-yl)-7-[2-(4-methylpiperazin-1-yl)ethoxy]-5-(tetrahydro-2H-pyran-4-yloxy)quinazolin-4-amine], for which the IC50 came to 50 µM.

For the origin of these results see PMC5430895, “Importance of the novel organic cation transporter 1 for tyrosine kinase inhibition by saracatinib in rheumatoid arthritis synovial fibroblasts” (Scientific Reports, 2017).
